The kcat is the maximal rate divided by the concentration of active sites. In general, kcat/Km refers to the second-order rate constant that governs catalysis at low substrate concentration.

This data set deals with NADPH. Description: purified protein, by the assay type. The conditions noted are these: 37.0 °C.
The mark [1] stands for this setting: other: cofactor varied, Menadione (100 μM printed for NADPH).

With “H. influenzae NfnB (Haemophilus influenzae Rd KW20)”, the Km (other: menadione 100 μM, pH 7.0) worked out at 2.9 ± 0.5 μM μM.

Consider “C. jejuni NfnB (Campylobacter jejuni subsp. jejuni NCTC 11168 = ATCC 700819)”, for which the Km (other: 20 μM menadione, pH 7.0) was 69.6 ± 8.8 μM μM. Turning to “YdgI (Bacillus subtilis subsp. subtilis str. 168)”, under setting [1], the Km is 295.0 ± 29 µM, the kcat was 96 s⁻¹ and the kcat/Km was 300000 M⁻¹ s⁻¹.

Values taken from US20040014191A1, “Nitroreductase enzymes” (priority 1999, published 2004).
